One data set relates to mammalian cells. The settings on record: cited from earlier work.

The values that follow come from patent publication US9468650B2, “Inhibition of endosomal toll-like receptor activation” (DUKE UNIVERSITY, priority 2009, dated 2016).

With Poly-L-lysine [Poly L-lysine], in the data set with mammalian cells, the “induction of apoptosis of mammalian cells” value is given as “significant apoptosis”. For the same substance, the “concentration inducing over 50% cell death” value in the data set with Raw264.7 cells is on record as “approximately 20 μg/ml”.
